From paper PMC9869975, “The β2-adrenergic receptor in the apical membrane of intestinal enterocytes senses sugars to stimulate glucose uptake from the gut” (Frontiers in Cell and Developmental Biology, 2023)

Target: β2-adrenergic receptor (β2-AR) (Homo sapiens, UniProt P07550)
Set-up: gene ADRB2

CC(C)(C)NCC(O)COc1cccc2c1CC(O)C(O)C2 (stereo not shown) [nadolol]
inhibition of epinephrine (20 nM) calcium response at 200 μM: the response was blocked by classical β-AR antagonists
